pIC50, pKi: −log10 of the molar value.

This assay addresses T1, α1 adrenergic receptors.
T1 construct: Kd; other: Saturation Analysis, canine lung membranes; Kd; other: Scatchard Analysis, canine lung membranes; Alpha-1 IC50; Alpha-1 Ki; other: 3H-prazocin, canine lung membranes; other: as stated in text; other: tex
Format: binding, canine (mongrel dogs). Particulars: canine lung membranes; for pKi: 3H-prazocin, read-out: Alpha-1 Ki; for pIC50: inhibition of specific 3H-prazocin binding, read-out: Alpha-1 IC50.

On to `CNC[C@H](O)c1cccc(O)c1` [(−)-Phenylephrine, (−)-phenylephrine], for which the pKi was 5.52 and the pIC50 is 5.15.

Turning to `CNC[C@@H](O)c1cccc(O)c1` [(+)-Phenylephrine, (+)-phenylephrine], the negative-log Ki (pKi) is 4.17 and the pIC50 is 3.75.

The pKi is the negative decadic logarithm of the Ki, by convention in mol/L. In general, pIC50 refers to the IC50 on a negative log10 scale, so that one unit is a factor of ten.
